Measurements published in US8476255B2, “Histone deacetylase inhibitors” (Orchid Chemicals & Pharmaceuticals Limited, priority 2007, dated 2013).

Chains of the proteins cited; added tags and fusions are not shown.
UniProt Q13547, whole entry: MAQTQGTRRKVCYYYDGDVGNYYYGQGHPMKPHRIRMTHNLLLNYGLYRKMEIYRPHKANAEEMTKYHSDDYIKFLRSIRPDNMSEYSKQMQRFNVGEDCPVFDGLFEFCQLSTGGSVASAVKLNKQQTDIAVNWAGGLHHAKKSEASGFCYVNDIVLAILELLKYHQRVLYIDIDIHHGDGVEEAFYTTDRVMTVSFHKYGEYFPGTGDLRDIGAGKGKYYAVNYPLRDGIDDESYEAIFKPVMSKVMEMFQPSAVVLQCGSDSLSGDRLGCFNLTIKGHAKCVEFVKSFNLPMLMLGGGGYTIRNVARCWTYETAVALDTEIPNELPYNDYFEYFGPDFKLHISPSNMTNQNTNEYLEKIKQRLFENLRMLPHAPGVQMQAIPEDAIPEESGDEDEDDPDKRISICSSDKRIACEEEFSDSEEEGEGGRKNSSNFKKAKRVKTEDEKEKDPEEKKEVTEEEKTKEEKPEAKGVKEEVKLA

Experiments:
recombinant HDAC1 enzyme = recombinant HDAC1 enzyme (Homo sapiens (Human), UniProt Q13547); test: HDAC1 inhibitory activity (isoform selectivity); assay type: biochemical; settings: read-out: HDAC1 inhibition (IC50)
Method: Since the Benzamide type compounds are known to have potential for HDAC class I specificity, active compounds in this series were tested for HDAC1 inhibitory activity. The assay was carried out, as previously described using recombinant HDAC1 enzyme (BIOMOL, USA) and following manufacturer's instructions.

[1] = system: HDAC (Mouse Liver Extract); test: HDAC inhibition assay using Boc-Lys(Ac)-AMC substrate; assay type: biochemical; settings: mouse liver enzyme
Method: Inhibition of HDAC has been implicated to modulate transcription and to induce apoptosis or differentiation in cancer cells. The fluorometric assay provides a fast and fluorescence based method that eliminates radioactivity, extractions or chromatography, as used in traditional assays. The assay is based on two steps. First, the HDAC fluorometric substrate, which comprises an acetylated lysine side chain, is incubated with a sample containing HDAC activity (Mouse Liver Extract). Deacetylation of the substrate sensitizes the substrate, in the second step; treatment with the Trypsin stop solution produces a fluorophore that can be easily analyzed using fluorescence plate reader. Assay was done in 96-well black microplate and total volume of the assay was […]. […] The plate was pre-incubated at 37° C. for 5 minutes. […] The plate was incubated at 37° C. for 30 min. The reaction was stopped by adding 100 μL, of Trypsin stop solution and incubating at 37° C. for 15-30 min. Measuring the fluorescence at excitation wavelength of 360 nm and emission wavelength of 460 nm monitored the release of AMC. Buffer alone and substrate alone served as blank. […] (Dennis Wegener et al, Anal. Biochem, 321, 2003, 202-208).

Row | SMILES | IC50 (recombinant HDAC1 enzyme) [µM] | IC50 [1] [µM]
1 | COc1ccc(/C(=C\c2ccc(OC)c(OC)c2)C(=O)NCc2ccc(C(=O)Nc3ccccc3N)cc2)cc1 [Compound 27, N-(2-Aminophenyl)-4-((3-(3,4-dimethoxyphenyl)-2-(4-methoxyphenyl)acrylamido)methyl)benzamide] | 0.05 | 20
2 | COc1cc(/C=C(/C(=O)NCc2ccc(C(=O)Nc3ccccc3N)cc2)c2ccc(F)cc2)ccc1F [Compound 20, N-(2-Aminophenyl)-4-((3-(4-fluoro-3-methoxyphenyl)-2-(4-fluorophenyl)acrylamido)methyl)benzamide] | 0.15 | 19
3 | CSc1ccc(/C=C(/C(=O)NCc2ccc(C(=O)Nc3ccccc3N)cc2)c2ccccc2F)cc1 [Compound 24, N-(2-Aminophenyl)-4-((3-(4-methylthiophenyl)-2-(2-fluorophenyl)acrylamido)methyl)benzamide] | 0.062 | 82
